pIC50: −log10 of the molar value.
System: not listed separately
Experiment: Pharmacokinetic study by intravenous administration to a rat
Conditions: intravenous single dose, 1 mg/mL solution at 1 mL/kg, Wistar rat, active form
Procedure: Pharmacokinetic Study by Intravenous Administration to a Rat
After the compounds of the present invention wherein R11 to R141 are a hydroxyl group, which were active forms, were weighed by a scale, they were adjusted by dimethylsulfoxide to become 10 mg/mL. Polyethylene glycol 400 and distilled water were added thereto to prepare 1 mg/mL of an administration solution. 1 mg/mL of the administration solution was intravenously administered as a single dose to a Wistar rat in an amount of 1 mL/kg. 1, 5, 10, 30, 60 and 180 minutes later, the drug concentration in the blood plasma obtained by blood drawing from its cervical vein over time under anesthesia was determined with LC/MS. From the obtained results, the area under the plasma concentration time curve from zero to time infinity (AUCinf (iv)) was calculated in accordance with the trapezoidal method of pharmacokinetic analysis. The total body clearance (CLtot, [L/hr/kg]) was calculated as an index of drug disappearance in the blood plasma from a dose [mg/kg] and AUC [μg×hr/mL] in accordance with the formula: CLtot=Dose÷AUCinf(iv).

Amino acid sequences for entries named in this document (tags omitted). Residues count along the entry.
UniProt P05556, 21-798 limits assumed: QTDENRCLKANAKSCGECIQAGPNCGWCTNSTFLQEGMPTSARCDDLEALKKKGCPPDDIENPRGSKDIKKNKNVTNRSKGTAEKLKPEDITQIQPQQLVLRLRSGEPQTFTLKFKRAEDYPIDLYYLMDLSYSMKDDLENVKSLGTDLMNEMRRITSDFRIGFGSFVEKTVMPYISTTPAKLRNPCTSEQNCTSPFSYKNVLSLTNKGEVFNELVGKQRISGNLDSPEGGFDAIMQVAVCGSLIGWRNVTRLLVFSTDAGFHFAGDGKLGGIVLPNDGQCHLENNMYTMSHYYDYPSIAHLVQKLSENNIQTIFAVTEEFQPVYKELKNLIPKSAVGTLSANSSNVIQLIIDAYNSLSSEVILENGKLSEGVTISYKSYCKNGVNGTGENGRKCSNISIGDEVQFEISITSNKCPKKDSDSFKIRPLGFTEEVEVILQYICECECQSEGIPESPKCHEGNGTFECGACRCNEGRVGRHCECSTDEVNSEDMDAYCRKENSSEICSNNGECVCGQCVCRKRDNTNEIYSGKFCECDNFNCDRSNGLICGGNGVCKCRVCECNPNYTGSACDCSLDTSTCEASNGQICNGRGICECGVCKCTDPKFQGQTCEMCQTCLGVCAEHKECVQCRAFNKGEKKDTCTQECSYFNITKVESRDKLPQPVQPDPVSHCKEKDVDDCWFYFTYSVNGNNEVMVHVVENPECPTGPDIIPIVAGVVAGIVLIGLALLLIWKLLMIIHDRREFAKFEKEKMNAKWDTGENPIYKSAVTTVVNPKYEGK
UniProt P13612, 34-1032 limits assumed: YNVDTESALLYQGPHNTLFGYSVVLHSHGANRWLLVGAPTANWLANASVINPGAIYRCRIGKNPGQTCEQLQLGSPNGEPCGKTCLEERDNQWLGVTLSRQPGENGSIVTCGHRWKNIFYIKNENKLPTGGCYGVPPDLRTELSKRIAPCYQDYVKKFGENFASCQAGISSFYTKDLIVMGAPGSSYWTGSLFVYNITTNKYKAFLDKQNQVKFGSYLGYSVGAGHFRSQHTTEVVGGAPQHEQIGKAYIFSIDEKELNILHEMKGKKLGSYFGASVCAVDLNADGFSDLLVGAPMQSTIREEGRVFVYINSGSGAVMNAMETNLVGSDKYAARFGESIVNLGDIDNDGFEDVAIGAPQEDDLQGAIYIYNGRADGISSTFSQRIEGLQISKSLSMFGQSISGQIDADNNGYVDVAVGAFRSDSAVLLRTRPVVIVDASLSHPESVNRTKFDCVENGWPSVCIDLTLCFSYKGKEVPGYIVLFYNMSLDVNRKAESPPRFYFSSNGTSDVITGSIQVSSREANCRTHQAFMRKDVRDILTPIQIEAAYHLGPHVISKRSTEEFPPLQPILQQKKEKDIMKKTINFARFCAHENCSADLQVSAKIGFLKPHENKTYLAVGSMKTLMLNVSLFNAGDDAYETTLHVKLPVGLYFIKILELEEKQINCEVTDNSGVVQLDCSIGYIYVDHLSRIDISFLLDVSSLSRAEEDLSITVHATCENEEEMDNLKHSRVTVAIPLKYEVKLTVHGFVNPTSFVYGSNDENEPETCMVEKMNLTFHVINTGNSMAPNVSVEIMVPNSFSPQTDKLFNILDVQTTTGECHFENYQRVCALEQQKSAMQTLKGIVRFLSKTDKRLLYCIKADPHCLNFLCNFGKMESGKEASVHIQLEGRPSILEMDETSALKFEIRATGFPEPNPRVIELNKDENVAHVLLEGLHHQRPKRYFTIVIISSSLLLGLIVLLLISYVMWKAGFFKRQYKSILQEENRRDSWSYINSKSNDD

In the case of `CN(C)Cc1ccc2c(c1)c(=O)n(-c1ccc(C[C@H](NC(=O)c3c(Cl)cccc3Cl)C(=O)O)cc1)c(=O)n2C`, the “Total body clearance CLtot” value was 1.7 mL/min/kg.

Target: VCAM-1/α4β1 integrin binding (Homo sapiens, UniProt P05556+P13612)
Experiment: Assay of antagonistic activity to VCAM-1/α4β1 integrin binding under the existence of blood serum (Jurkat cell adhesion to VCAM-1/Fc)
Conditions: read-out: IC50, antagonistic activity to VCAM-1/α4β1 integrin binding; Jurkat cells, recombinant human VCAM-1/Fc, 50% human blood serum
Procedure: Assay of Antagonistic Activity to VCAM-1/α4β1 Integrin Binding Under the Existence of Blood Serum
The capacity of a test substance antagonistic to the binding of cell strain of human T cells, Jurkat (ATCC TIB-152), known to express integrin α4β1, to VCAM-1 was determined.
Fifty μl/well of a solution (500 ng/ml) of recombinant human VCAM-1/Fc (R & D systems) diluted with buffer A (0.1 M NaHCO3, pH 9.6) was added to a 96-well microtiter plate (Nunc Maxisorp). After the incubation at 4° C. overnight and washing once with PBS, a buffer (buffer B) obtained by diluting Block Ace (Snow Brand Milk Products Co., Ltd.) with PBS to ½ concentration was added in an amount of 150 μl/well. After the incubation at room temperature for 2 hours, buffer B was removed and the plate was washed with PBS once.
Jurkat cells were washed with Dulbecco modified Eagle medium (SIGMA, hereinafter referred to as “DMEM”) once. Then, the cells were again suspended in a binding buffer (DMEM containing 20 mM HEPES, 0.1% BSA, 2 mM MnCl2 and 50% human blood serum (Sigma)) to become 1×10^6 cells/mL.
Sixty μl of a test substance of various concentrations obtained by the dilution with the binding buffer was added to a round-bottom, 96-well plate (IWAKI). Immediately thereafter, 60 μl of the Jurkat cells (1×10^6 cells/ml) were added thereto and shaken on a plate shaker (IKA-Labortechnik, IKA-SCHUTTLER MTS-4) at 1000 rpm for 10 seconds. In 120 μL of the cell suspension to which the test substance was added, each 100 μL thereof was transferred on the VCAM-1/Fc-coated plate and incubated in dark place at room temperature for 60 minutes. After the shaking on the plate shaker at 1000 rpm for 30 seconds, the solution was immediately removed. Then, the unbound cells were removed by washing them with PBS once. A buffer C (PBS containing 0.82% Triton X-100) was added to the plate in an amount of 70 μL/well. After the shaking on the plate shaker at 1000 rpm for 5 minutes, the bound Jurkat cells were lysed. After centrifuging the cells on a plate centrifuge (SIGMA 4-15C) at room temperature at 2500 rpm for 5 minutes, 50 μL of supernatant thereof was transferred to a 96-well microtiter plate (Nunc Maxisorp). Each 50 μL of Substrate Buffer (Promega, CytoTox 96 Non-Radioactive Cytotoxicity Assay) was added thereto, shaken on a plate shaker at 1000 rpm for 10 seconds and reacted in dark place at room temperature for 30 minutes. Then, each 50 μL of Stop Solution (Promega, CytoTox 96 Non-Radioactive Cytotoxicity Assay) was added thereto and shaken on a plate shaker at 1000 rpm for 10 seconds. Its absorbance of 490 nm was determined with a plate reader (Molecular Devices, Vmax). The absorbance thus obtained detects an activity of lactate dehydrogenase (LDH) dissolved in the supernatant of each well. Namely, the absorbance is proportional to the number of remaining Jurkat cells on the plate via the binding to VCAM-1. The test was conducted in duplicate and the binding rate of each test substance in various concentrations was determined while the absorbance of the test substance-free well was determined to be 100% and the absorbance of the Jurkat-cell-free well was determined to be 0%. The concentration for the 50% inhibition of binding, IC50, was calculated.

`CN(C)Cc1ccc2c(c1)c(=O)n(-c1ccc(C[C@H](NC(=O)c3c(Cl)cccc3Cl)C(=O)O)cc1)c(=O)n2C` and `CNCc1ccc2c(c1)c(=O)n(-c1ccc(C[C@H](NC(=O)c3c(F)cccc3Cl)C(=O)O)cc1)c(=O)n2C` are within 0.2 log units of each other in pIC50: 7.86 for the first, 7.98 for the second.

Same assay, conditions: read-out: IC50, antagonistic activity to VCAM-1/α4β1 integrin binding; Jurkat cells, recombinant human VCAM-1/Fc, 50% human blood serum; tested form: TFA

First: Cn1c(=O)n(-c2ccc(C[C@H](NC(=O)c3c(Cl)cccc3Cl)C(=O)O)cc2)c(=O)c2ccncc21
Second: CNCCOc1ccc2c(c1)c(=O)n(-c1ccc(C[C@H](NC(=O)c3c(Cl)cccc3Cl)C(=O)O)cc1)c(=O)n2C
The pIC50 of the first is 0.53 log units higher: 8.44 for the first, 7.91 for the second.

Compared with `Cn1c(=O)n(-c2ccc(C[C@H](NC(=O)c3c(Cl)cccc3Cl)C(=O)O)cc2)c(=O)c2cc(CNC3CCC3)ccc21`, `Cn1c(=O)n(-c2ccc(C[C@H](NC(=O)c3c(Cl)cccc3Cl)C(=O)O)cc2)c(=O)c2cc(OCCN3CCCC3)ccc21` is 0.25 log units lower in pIC50: 8.09 for the first, 7.84 for the second. The first is the more potent here.

`CCN(C)CCOc1ccc2c(c1)c(=O)n(-c1ccc(C[C@H](NC(=O)c3c(Cl)cccc3Cl)C(=O)O)cc1)c(=O)n2C` and `CCN(CC)CCOc1ccc2c(c1)c(=O)n(-c1ccc(C[C@H](NC(=O)c3c(Cl)cccc3Cl)C(=O)O)cc1)c(=O)n2C` are the same in pIC50: 7.71 for the first, 7.71 for the second.

`CCCNCCOc1ccc2c(c1)c(=O)n(-c1ccc(C[C@H](NC(=O)c3c(Cl)cccc3Cl)C(=O)O)cc1)c(=O)n2C` and `CCNCCOc1ccc2c(c1)c(=O)n(-c1ccc(C[C@H](NC(=O)c3c(Cl)cccc3Cl)C(=O)O)cc1)c(=O)n2C` are within 0.2 log units of each other in pIC50: 7.77 for the first, 7.92 for the second.

Reference: US7345049B2, “Phenylalanine derivatives” (Ajinomoto Co., Inc., priority 2003, dated 2008)
